The values that follow are results of earlier work, collected in article PMC7242566, “The Three Lipocalins of Egg-White: Only Ex-FABP Inhibits Siderophore-Dependent Iron Sequestration by Salmonella Enteritidis” (Frontiers in Microbiology, 2020).

By UniProt entry, the sequences of proteins in these tests, tags left out. Residues count along the entry.
UniProt P21760, 21-178: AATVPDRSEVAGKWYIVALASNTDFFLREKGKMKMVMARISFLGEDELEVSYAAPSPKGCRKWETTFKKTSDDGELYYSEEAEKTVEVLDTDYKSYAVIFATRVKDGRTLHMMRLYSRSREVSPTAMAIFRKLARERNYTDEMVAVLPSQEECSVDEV

The target in this series is T1, Ex-FABP (Gallus gallus, UniProt P21760).
T1 construct: made in house; host or cells: E. coli K-12 BW25113 ΔentB::kan (JW0587) (λDE3), pET21a, periplasmic secretion
The settings on record: protein printed as Ex-FABP; ref Fischbach et al., 2006; cited from earlier work.

As for salmochelin [apo-Sal (or DGE)], the Kd entry was “Under threshold”.
